Results: PubChem BioAssay AID588852 (The Scripps Research Institute Molecular Screening Center, 2011)
The entries are a selection whose mix differs from that of the whole data set. Active and inactive are the calls of the source.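 How the source made its calls: active means percent inhibition above its own plate's cutoff, namely the mean of that plate's compound wells plus 3 SD; inactive means the rest.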

Amino acid sequences for entries named in this document (tags omitted). A change or cut given only in a name is not applied to a line headed by its entry.
UniProt P11229: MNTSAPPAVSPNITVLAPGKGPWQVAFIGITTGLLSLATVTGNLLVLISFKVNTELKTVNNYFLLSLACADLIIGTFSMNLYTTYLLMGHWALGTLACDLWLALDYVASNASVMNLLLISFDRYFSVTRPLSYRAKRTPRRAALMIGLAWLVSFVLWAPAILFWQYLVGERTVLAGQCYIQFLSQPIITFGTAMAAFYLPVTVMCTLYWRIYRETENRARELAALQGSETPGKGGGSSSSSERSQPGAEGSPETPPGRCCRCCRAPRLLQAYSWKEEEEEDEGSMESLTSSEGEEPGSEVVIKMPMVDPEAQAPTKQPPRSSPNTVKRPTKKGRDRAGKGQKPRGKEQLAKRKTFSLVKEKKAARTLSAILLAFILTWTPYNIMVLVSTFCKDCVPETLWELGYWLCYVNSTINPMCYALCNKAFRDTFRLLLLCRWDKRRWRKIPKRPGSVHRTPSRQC

Molecular target: Muscarinic acetylcholine receptor M1 (Homo sapiens) (UniProt P11229)
Assay: human M1 muscarinic receptor antagonists, primary screen, CHO-K1 cells, Fluo-8 calcium fluorescence, 1536-well (AID 588852);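 further: peak over basal fluorescence ratio during 140 s after agonist addition; 0% = ACh EC80 plus DMSO and 100% = DMSO alone without agonist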
Settings: CHO-K1 hM1, Fluo-8 calcium fluorescence, ACh EC80 antagonist; at 3 µM; active compounds read high

| SMILES | inhibition |
| --- | --- |
| CC(=O)Nc1ccc([As](=O)(O)O)cc1 | inactive: -8.53% |
| O=C(O)c1ccccc1[As](=O)(O)O | inactive: -15.7% |
| O=[N+]([O-])C1C(O)C(O)C([N+](=O)[O-])C(O)C1O (stereo not drawn) | inactive: -5.78% |
| O=C(NC(Sc1ccncn1)C(Cl)(Cl)Cl)c1ccccc1 (stereo not drawn) | inactive: -6.01% |
| Oc1ccccc1CNc1ccccn1 | inactive: -3.51% |
| Nc1cc(N)c2nonc2c1[N+](=O)[O-] | inactive: -0.47% |
| CC(C)CC(=O)NC(Sc1ccc(Cl)cc1)C(Cl)(Cl)Cl (stereo not drawn) | inactive: -12.4% |
| CN1CCCC(OC(=O)C(c2ccccc2)c2ccccc2)C1 (stereo not drawn) | active: 97.7% |
| Clc1ccc(Cl)c(NC2=NCC(CBr)S2)c1 (stereo not drawn) | inactive: -2.99% |
| Cc1ccc(OP(=O)(Nc2nccs2)Oc2ccc(C)cc2)cc1 | inactive: -1.53% |
| COc1ccccc1OP(=O)(Nc1ccc(C)cn1)Oc1ccccc1OC | inactive: 2.62% |
| CC(C)[C@H]1C(=O)O[C@@H]2CCN3CC=C(COC(=O)[C@](C)(O)[C@]1(C)O)[C@H]23 | inactive: -1.05% |
| Cc1ccc(N/C(=N/P(=O)(N2CCOCC2)N2CCOCC2)N2CCOCC2)cc1 | inactive: 16.2% |
| CN(C(=O)Cc1ccc(Cl)c(Cl)c1)[C@H]1CCCC[C@H]1N1CCCC1 | inactive: -10.7% |
| NC(=O)c1cc([N+](=O)[O-])cc([N+](=O)[O-])c1N | inactive: -1% |
| CC1CCN(C(=O)Oc2c(Cl)cc(Cl)c3cccnc23)CC1 | inactive: -0.32% |
| c1cc(-c2nn[nH]n2)ccc1-c1nn[nH]n1 | inactive: -10.7% |
| CN(C)C(=O)OCCc1n(C)cc[n+]1C | inactive: -9.24% |
| CC(C)c1nc(Nc2ccccc2)n(P(=O)(N(C)C)N(C)C)n1 | inactive: 3.86% |
| CC(C)=N/N=C(\N)N[N+](=O)[O-] | inactive: -5.7% |
| CCN(/C(=N/P(=O)(N1CCOCC1)N1CCOCC1)N1CCOCC1)c1ccc(OC)cc1 | inactive: 1.49% |

| SMILES | inhibition |
| --- | --- |
| C[N+]1=C2C=CC=CC=C2SC12C([N+](=O)[O-])=CC([N+](=O)[O-])=C[C-]2[N+](=O)[O-] (stereo not drawn) | inactive: 20.7% |
| Nc1ccc([As](=O)(O)c2ccc(N)cc2)cc1 | inactive: -9.86% |
| CCc1nc2c(n1)c1c(non1O)c1c2no[n+]1[O-] | inactive: -0.02% |
| O=[N+]([O-])c1cc([N+](=O)[O-])c(CCNc2ccccc2)c([N+](=O)[O-])c1 | inactive: 1.96% |
| Cc1ccc(NP(=O)(Oc2ccccc2)Oc2ccccc2)nc1 | inactive: 21.4% |
| O=[N+]([O-])c1cccc2n[nH]nc12 | inactive: -4.49% |
| CC(=O)N1C2C3N(C(C)=O)C1C1N(C(C)=O)C(C(N1C(C)=O)N3C(C)=O)N2C(C)=O | inactive: -4.99% |
| COc1ccc(C2=NCC(CBr)S2)cc1 (stereo not drawn) | inactive: -5.81% |
| O=C(O)CNc1ccc([As](=O)(O)O)cc1 | inactive: 13.7% |
| C/C=C1/C[C@@H](C)[C@](O)(CO)C(=O)OCC2=CCN3CC[C@@H](OC1=O)[C@@H]23 | inactive: -23.2% |
| COC(=O)C1(C)COP(=O)(Nc2ccccc2)OC1 (stereo not drawn) | inactive: -10.5% |
| O=[N+]([O-])c1cccc(NC2=NCC(CBr)S2)c1 (stereo not drawn) | inactive: -20.8% |
| O=[N+]([O-])c1ncn(CCn2ncnc2[N+](=O)[O-])n1 | inactive: -3.23% |
| CC(C)(C)C(=O)NC(Sc1ccncn1)C(Cl)(Cl)Cl (stereo not drawn) | inactive: -12.4% |
| O=C(Nc1cc([As](=O)(O)O)ccc1O)c1ccccc1 | inactive: -13% |
| O=P1(N(CCCl)CCCl)OCCCS1 (stereo not drawn) | inactive: -22% |
| C(Cc1nn[nH]n1)Cc1nn[nH]n1 | inactive: -2.37% |
| Nc1ccc([As](=O)(O)c2ccc([N+](=O)[O-])cc2)cc1 | inactive: -11.3% |
| COc1ccc(CC2NCC(O)C2OC(C)=O)cc1 (stereo not drawn) | inactive: -25.1% |
| O=[As](O)(c1ccccc1)c1ccc(O)cc1 | inactive: 2.6% |
| O=[N+]([O-])c1ccc(O)c(/C=N/Nc2ccc([N+](=O)[O-])cc2[N+](=O)[O-])c1 | inactive: -16.4% |

| SMILES | inhibition |
| --- | --- |
| O=[N+]([O-])c1ncn(CCn2cnc([N+](=O)[O-])n2)n1 | inactive: -6.47% |
| CC(=O)NC(SC(=S)N(C)C)C(Cl)(Cl)Cl (stereo not drawn) | inactive: -8.29% |
| C[C@H]1OP(=O)(Oc2ccccc2)[C@H](O)[C@H](O)[C@H]1N=[N+]=[N-] (stereo partly drawn) | inactive: -8.25% |
| O=P(Nc1ccccn1)(c1ccc(Br)cc1)c1ccc(Br)cc1 | inactive: -5.61% |
| COc1ccc(N)c([N+](=O)[O-])c1[N+](=O)[O-] | inactive: -2.77% |
| Nc1ccc(CCCCOc2ccccc2)cc1 | inactive: -10.1% |
| COc1ccc(C[C@H](C)NC[C@@H](O)c2ccc(O)c(NC=O)c2)cc1 | inactive: -12% |
| c1nnnn1CCn1cnnn1 | inactive: -20.6% |
| CC(C)C(=O)NC(Sc1ccccc1)C(Cl)(Cl)Cl (stereo not drawn) | inactive: -5.73% |
| O=P(Nc1nccs1)(c1ccccc1)c1ccccc1 | inactive: -6.96% |
| CC(=O)Nc1ccc(Oc2c([N+](=O)[O-])cc([N+](=O)[O-])cc2[N+](=O)[O-])cc1 | inactive: -4.1% |
| CC(=O)Nc1ccc([As](=O)(O)O)c(O)c1 | inactive: -3.93% |
| C[C@H]1OP(=O)(Oc2ccccc2)C[C@@H]2O[C@@H]21 (stereo partly drawn) | inactive: -18.1% |
| C[C@@H]1C=CCP(=O)(Oc2ccccc2)O1 (stereo partly drawn) | inactive: -7.32% |
| Cc1ccccc1CN(C)C(=O)COC(=O)C(O)(c1ccccc1)c1ccccc1 | inactive: -3.28% |
| CCN(CC)CCOC(=O)C(O)(c1ccccc1)c1ccccc1 | active: 98.1% |
| COC(=O)C1(C)COP(=O)(NCc2ccccc2)OC1 (stereo not drawn) | inactive: -4.44% |
| CC1C(=O)OC2CCN3CC=C(COC(=O)C(C)(O)C1(C)O)C23 (stereo not drawn) | inactive: -5.1% |
| CC(=O)c1ccc(N2CC2c2ccncc2)cc1 (stereo not drawn) | inactive: -10.1% |
| N#C/C(=C\c1ccc(N(CCBr)CCBr)cc1)C(N)=O | inactive: -7.3% |
| CC(C)(C)C(=O)NC(Sc1ccccc1)C(Cl)(Cl)Cl (stereo not drawn) | inactive: -3.66% |

| SMILES | inhibition |
| --- | --- |
| CCc1cc(O)c([N+](=O)[O-])c(C)c1[N+](=O)[O-] | inactive: -17% |
| CCOc1ccc(C2=NCC(CBr)S2)cc1 (stereo not drawn) | inactive: 0.69% |
| O=P1(Nc2nc3ccc(Cl)cc3s2)COc2ccccc2O1 (stereo not drawn) | inactive: -1.48% |
| O=c1c2cc([N+](=O)[O-])ccc2[nH]c2c([N+](=O)[O-])cc([N+](=O)[O-])cc12 | inactive: 8.03% |
| CN(C)C(=O)Oc1noc2ccccc12 | inactive: -2.87% |
| CC(NC(=O)COC(=O)C(O)(c1ccccc1)c1ccccc1)c1ccccc1 (stereo not drawn) | inactive: 6.81% |
| Cc1ccccc1OP(=O)(Nc1ccccn1)Oc1ccccc1C | inactive: 13% |
| CCN(C(=O)COC(=O)C(O)(c1ccccc1)c1ccccc1)c1c(N)n(Cc2ccccc2)c(=O)[nH]c1=O | inactive: -9.18% |
| CCC(=O)N1C2C3N(C(=O)CC)C1C1N(C(=O)CC)C(C(N1C(=O)CC)N3C(=O)CC)N2C(=O)CC | inactive: -6.75% |
| Clc1ccc(N2CCN(Cc3c[nH]c4ncccc34)CC2)cc1 | inactive: -7.46% |
| Cc1ccc(OP(=O)(Nc2ccccn2)Oc2ccc(C)cc2)cc1 | inactive: -0.82% |
| CC(=O)NC(SC(=S)N(CC(C)C)CC(C)C)C(Cl)(Cl)Cl (stereo not drawn) | inactive: -8.49% |
| COC(=O)c1cc2c(s1)N=C(c1ccccc1)N(C)P2(=O)N1CCOCC1 (stereo not drawn) | inactive: -15.5% |
| CC1C(=O)OC2CCN3CC4OC4(COC(=O)C(C)(O)C1(C)O)C23 (stereo not drawn) | inactive: -19.4% |
| O=P1(N(CCCl)CCCl)OCCC2CCCCN21 (stereo not drawn) | inactive: -20.4% |
| C=C1C(=O)OC2CCN3CC=C(COC(=O)C(C)(O)C4(CO4)C1C)C23 (stereo not drawn) | inactive: -0.58% |
| Cc1ccc(NP(=O)(Oc2cccc(C)c2)Oc2cccc(C)c2)nc1 | inactive: -19.5% |
| c1ccc(-c2nn[nH]n2)c(-c2nn[nH]n2)c1 | inactive: -12.2% |
| CCNC(=S)/N=C(\N)N[N+](=O)[O-] | inactive: -2.53% |
| O=C(NC1CCS(=O)(=O)C1)NP(=S)(Oc1ccccc1)Oc1ccccc1 (stereo not drawn) | inactive: 12% |
